Bioassay records (PubChem BioAssay)
This is a sample that favours compounds with a hit; in the whole collection about 2.1% have one here.
PDI inh = blocks human protein disulfide isomerase activity | P07237 | PDI insulin aggregation turbidity, A650, 90 min | inhibition, % at 10 µM | actives 0.052% (n = 350,000);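 active = mean inhibition across replicates of 30% or more, whatever share of single replicates reach that level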
Rev-erbA mod = modulators of human Rev-erb alpha DNA binding; P20393; Rev-erbα–FITC-DNA binding, fluorescence polarization, 90 min; activity, % at 10 µM; actives 0.79% (n = 370,000); AID 1259318;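 active = activity above about 14%, limit read from the data; passing the limit was not always enough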
UUG fidelity = yeast start codon fidelity modulation; actives 0.13% (n = 350,000); activity score, % at 18.7 µM; S. cerevisiae UUG-firefly luciferase reporter, luminescence/redox ratio;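 active = replicate mean at a twofold rise or more, about +100% in these data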;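 note: firefly luciferase made from a UUG start codon reports start codon fidelity; reporter light over untreated wells divided by growth signal over untreated wells; some hits fall short of that in this replicate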
SMARCA2 activ = activators of SMARCA2 function; MG213 cells, MMTV-luciferase reporter, dexamethasone, overnight; activation, % at 9.1 µM; actives 1% (n = 370,000); in the data active = activation above about 7.8%
INS-1E GSIS act = GLuc luminescence reporter in INS-1E cells, primary screen for activators of glucose-dependent secretion of insulin. INS-1E GLuc reporter insulin secretion, 2-3 h. activation, % at 16.6 µM. actives 0.61% (n = 370,000). AID 743287;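 active = lowest replicate activation of at least 40%, so every replicate reaches that level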
ERp5 block = blocks human ERp5 reductase activity on insulin; Q15084; ERp5 insulin aggregation, absorbance 650 nm, 90 min; inhibition, % at 9.99 µM; actives 0.05% (n = 350,000); AID 651711;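 active = mean replicate inhibition above about 25%, with every replicate also reaching it, limit read from the data, passing the limit was not always enough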
SMARCA2 conf = confirmation of SMARCA2 (BRM) function activators. activation, % at 9.1 µM. MG213 cells, MMTV-luciferase with dexamethasone, luminescence, overnight; MG213 cells expressing E1A, Rb sequestered; DMSO wells 0%, reference activator 100%. shares compounds with SMARCA2 activ. actives 30% (n = 3,500). AID 652260;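 active = activation above its plate's cutoff, the mean activation of tested wells plus 3 SD, cut at about 7.9% in these data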
GAL4-VP16 Luc = activates GAL4-VP16 luciferase, flagging SMARCA2 activator hits | shares compounds with SMARCA2 activ | HEK293 GAL4-VP16 pG5luc reporter, luciferase luminescence; scaled: DMSO wells 0%, SAHA wells 100% | activation, % at 9.1 µM | actives 41% (n = 3,500) | AID 686939;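 active = activation above the solvent-only control well mean plus 3 SD, averaged across control plates, cut at about 5.2% in these data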
Numbers stand for hits; 0 = inactive; - = no result.

SMILES	PDI inh	Rev-erbA mod	UUG fidelity	SMARCA2 activ	INS-1E GSIS act	ERp5 block	SMARCA2 conf	GAL4-VP16 Luc
COc1ccc(NC(=O)c2cccs2)cc1	0	0	0	0	-	-	-	-
COc1ccc(NC(=S)NNC(=O)c2cccs2)cc1	0	0	-	8.8	0	-	0	0
CCCN1[C@H](C(=O)NCc2cccc(OC)c2)[C@@H](CO)[C@@H]2Cn3c(ccc(C4=CCCC4)c3=O)[C@@H]21	-	-	0	-	0	0	-	-
Cc1c(C(=O)N2CCCC2)c(S(=O)(=O)Nc2ccccc2)c(C)n1C	0	0	0	14	0	0	0	0
Cc1cc(C)cc(NS(=O)(=O)c2c(C(=O)N3CCOCC3)c(C)n(C)c2C)c1	0	0	0	10	0	0	0	0
Cc1ccc(-c2cccc(NC(=O)C3C4C=CC(C4)C3C(=O)O)c2)o1 (stereo not drawn)	0	0	0	9.4	0	0	0	0
COc1ccc(-n2cc(-c3ccccc3)[nH]c2=S)cc1	0	0	-	0	0	-	-	-
COc1ccc(-n2cnc(=S)[nH]c2=S)cc1	0	0	0	14	0	0	21	0
Cc1cccc(CNC(=O)C2CCC(=O)N(C3CCCC3)C2)c1 (stereo not drawn)	0	0	0	0	0	0	-	-
Cc1ccc(CNC(=O)C2CCC(=O)N(C3CCCC3)C2)c(F)c1F (stereo not drawn)	0	0	0	9.7	0	0	0	0
COc1cccc(C#Cc2ccc3c(c2)[C@H]2[C@H](CCN2C(=O)c2ccc4c(c2)OCO4)[C@@H](CO)N3)c1	-	-	-	-	-	0	-	-
C(=N\Nc1ccccc1)/c1nc2ccccc2s1	0	0	-	10	0	0	0	9.0
O=C(O)C(=O)/C(=C\c1ccccc1)c1ccc2ccccc2n1	0	0	0	0	0	0	-	-
O=C(O)C(=O)/C(=C\c1ccc([N+](=O)[O-])cc1)c1ccc2ccccc2n1	0	0	-	8.7	0	0	0	11
COc1ccc(NC(=O)Nc2ccc3c(c2)CC(=O)N([C@H](C)CO)C[C@H](C)[C@@H](CN(C)C(=O)Nc2ccc(OC)cc2)O3)cc1	-	-	0	-	0	0	-	-
Cc1ccc(S(=O)(=O)Nc2cccc3c2O[C@@H](CN(C)C(=O)Nc2cccc4ccccc24)[C@H](C)CN([C@@H](C)CO)C3=O)cc1	-	-	-	-	0	-	-	-
Cc1ccc(NC(=O)Nc2cnccn2)cc1	0	0	0	10.0	0	0	0	0
Nc1cccc(N=[N+]([O-])c2cccc(N)c2)c1	0	0	0	8.8	-	0	13	6.9
COc1cc2c[n+](C)c3c4ccccc4ccc3c2cc1OC	0	0	-	11	0	0	42	0
COc1ccc2c(c1)c[n+](C)c1c3cc(OC)c(OC)cc3ccc21	-	0	-	0	-	0	-	-
O=C1N/C(=C/c2ccc(N3CCOCC3)o2)C(=O)N1c1ccccc1	0	0	-	14	0	0	0	0
Cc1ccc(C(=O)O/N=C(\N)Cc2cccs2)cc1[N+](=O)[O-]	0	0	0	8.2	0	0	0	0
COc1ccccc1C/C(N)=N/OC(=O)c1ccc(C)c([N+](=O)[O-])c1	0	0	-	0	0	-	-	-
CCOc1ccc2nc(NC(=O)C3CCCO3)sc2c1 (stereo not drawn)	0	0	0	0	0	0	-	-
COc1ccc2nc(NC(=O)c3ccc(NC(=O)C4CCCO4)cc3)sc2c1 (stereo not drawn)	0	0	0	0	0	0	-	-
O=C(Nc1nc2ccc(F)cc2s1)C1CCCO1 (stereo not drawn)	0	0	0	10	-	-	12	5.5
O=C(Nc1nnc(Cc2ccc(Cl)cc2)s1)C1CCCO1 (stereo not drawn)	0	0	-	0	0	0	-	-
O=C(Nc1nc2ccccc2s1)C1CCCO1 (stereo not drawn)	0	0	0	11	0	0	11	9.8
O=C(Nc1ncc(Cc2ccccc2)s1)C1CCCO1 (stereo not drawn)	0	0	0	12	0	0	11	8.6
